Measured values: paper PMC9907956 (Journal of inorganic biochemistry, 2022)

Target: T1, human CYP11B1 (Homo sapiens, UniProt P15538)
T1 sequence (P15538 25-503): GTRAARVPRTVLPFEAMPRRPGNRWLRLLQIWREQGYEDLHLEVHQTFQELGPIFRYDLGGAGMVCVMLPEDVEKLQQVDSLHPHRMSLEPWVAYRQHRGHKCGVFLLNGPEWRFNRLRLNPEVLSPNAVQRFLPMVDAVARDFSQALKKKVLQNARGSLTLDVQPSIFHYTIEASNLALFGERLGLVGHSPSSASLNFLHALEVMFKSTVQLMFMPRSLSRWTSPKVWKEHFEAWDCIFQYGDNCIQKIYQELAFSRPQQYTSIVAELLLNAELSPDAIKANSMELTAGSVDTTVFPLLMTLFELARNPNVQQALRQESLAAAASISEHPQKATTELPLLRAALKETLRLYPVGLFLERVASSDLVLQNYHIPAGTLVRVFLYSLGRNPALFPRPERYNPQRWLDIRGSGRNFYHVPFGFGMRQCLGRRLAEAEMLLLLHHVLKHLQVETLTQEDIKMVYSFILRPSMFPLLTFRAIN
Test: Spectral ligand binding titration
Conditions: 0.2 μM CYP11B1, 5 cm cuvettes

| Structure (SMILES) | Amax (1:1 CYP11B1 to adrenodoxin) | Amax (CYP11B1 alone) |
| --- | --- | --- |
| N#Cc1ccc([C@H]2CCCc3cncn32)cc1 [(R)-fadrozole] | 0.021 | 0.014 |
| N#Cc1ccc([C@@H]2CCCc3cncn32)cc1 [(S)-fadrozole] | 0.023 | 0.010 |
